Assay [1] has as its system K. pneumoniae ATCC BAA-2146. The experiment in a line: MIC, antimicrobial susceptibility test (CLSI M07-A10). The note with it: replicates 1 and 2, as tobramycin concentration. The class given is cell-based. How it is done:
(§1) All test and quality control strains were recovered from frozen storage (−80° C.) and cultured at 35±2° C. for 18-24 h.
(§2) All test articles were dissolved in sterile ultra-pure water at a concentration of 2.56 mg/mL. […] 100 and 200 μL of drug-free medium was added to positive and negative control wells, respectively. Suspensions equivalent to a McFarland 0.5 standard were prepared for each test strain in 5 mL sterile phosphate-buffered saline (PBS) and further diluted 1:150 in CA-MHB to provide an inoculum of 2-8×10^5 CFU/mL. 100 μL of each inoculum was dispensed into all wells—except negative control wells (100 μL sterile water added)—to provide an inoculum of ˜5×10^5 CFU/well and a final volume of 200 μL per well. Assay plates were incubated according to CLSI M07-A10 guidelines of 35±2° C. for 16-20 h in air.

Assay [2] has as its system E. coli ATCC BAA-2469. Described as above. The class given is cell-based. Particulars: replicates 1 and 2, as tobramycin concentration. Here is the method:
as §1, §2

Turning to `NC[C@H]1O[C@H](O[C@H]2[C@H](O)[C@@H](O[C@H]3O[C@H](CO)[C@@H](O)[C@H](N)[C@H]3O)[C@H](N)C[C@@H]2N)[C@H](N)C[C@@H]1O` [Tobramycin, tobramycin], the “Test Article MIC” value in assay [1] and in assay [2] was above 128 µg/mL throughout.

Values taken from US20220193256A1, “NANO-ANTIBIOTICS BASED ON SINGLE-CHAIN DEXTRAN NANOPARTICLES” (priority 2019, published 2022).
